# EP4701614B1, “COSMETIC COMPOSITIONS FOR MAINTAINING AND RESTORING SKIN BARRIER FUNCTION” (dated 2026)
# Tests used:
# LOR = test: qPCR gene expression assay in differentiated primary keratinocytes; settings: primary keratinocytes differentiated 72hrs with 1.2mM Ca2+; treated 24hrs; test compound 10µm; relative to housekeeper genes
# Experimental: (§1) Barrier function and development are keys to proper skin function and health. A comparative series of gene assays were performed on barrier function related genes to show the performance of compounds of general formula (I) according to the present invention.
# (§2) Primary keratinocytes from 5 donors were pooled and plated at 100,000 cells/well in 6 well plates. Cells were grown in KGM-Gold (Lonza) at 37°C, 5% CO2 and then differentiated for 72hrs via the addition of 1.2mM Ca^2+. Cells were then treated for 24hrs with fresh medium containing vehicle, or vehicle plus test compound, using a test compound concentration of 10µm. Following treatment any effect on cell viability was confirmed via an LDH assay on the culture media. The cells were washed in PBS and RNA isolated via QIAzol (QIAgen) following the manufacturer's instructions. RNA quantity and quality was measured via Nanodrop and bioanalyzer assessments ahead of qPCR assessment for the levels of specific gene products. Test genes were selected to cover various aspects of epidermal function and quantified relative to the levels of a control panel of housekeeper genes. A positive fold change (log2 FC) value indicates an increase of expression, while a negative fold change indicates a decrease in expression.
# CERS3 = test: as above; settings: primary keratinocytes differentiated 72hrs with 1.2mM Ca2+; treated 24hrs; test compound 10µm; relative to housekeeper genes
# Experimental: as §1, §2
# KRT10 = test: as above; settings: primary keratinocytes differentiated 72hrs with 1.2mM Ca2+; treated 24hrs; test compound 10µm; relative to housekeeper genes
# Experimental: as §1, §2
# TGM1 = test: as above; settings: primary keratinocytes differentiated 72hrs with 1.2mM Ca2+; treated 24hrs; test compound 10µm; relative to housekeeper genes
# Experimental: as §1, §2
# FLG = test: as above; settings: primary keratinocytes differentiated 72hrs with 1.2mM Ca2+; treated 24hrs; test compound 10µm; relative to housekeeper genes
# Experimental: as §1, §2
# ELOVL4 = test: as above; settings: primary keratinocytes differentiated 72hrs with 1.2mM Ca2+; treated 24hrs; test compound 10µm; relative to housekeeper genes
# Experimental: as §1, §2
# KLK11 = test: as above; settings: primary keratinocytes differentiated 72hrs with 1.2mM Ca2+; treated 24hrs; test compound 10µm; relative to housekeeper genes
# Experimental: as §1, §2
# ALOX12B = test: as above; settings: primary keratinocytes differentiated 72hrs with 1.2mM Ca2+; treated 24hrs; test compound 10µm; relative to housekeeper genes
# Experimental: as §1, §2
# CLDN1 = test: as above; settings: primary keratinocytes differentiated 72hrs with 1.2mM Ca2+; treated 24hrs; test compound 10µm; relative to housekeeper genes
# Experimental: as §1, §2
# [1] = test system: barrier function related genes; test: qPCR gene expression assay in differentiated primary keratinocytes, all test genes together; settings: average over the 9 test genes, treated 24hrs, test compound 10µm
# Experimental: as §1, §2
SMILES,Test Gene LOR log2 FC (LOR) [log2 FC],Test Gene CERS3 log2 FC (CERS3) [log2 FC],Test Gene KRT10 log2 FC (KRT10) [log2 FC],Test Gene TGM1 log2 FC (TGM1) [log2 FC],Test Gene FLG log2 FC (FLG) [log2 FC],Test Gene ELOVL4 log2 FC (ELOVL4) [log2 FC],Test Gene KLK11 log2 FC (KLK11) [log2 FC],Test Gene ALOX12B log2 FC (ALOX12B) [log2 FC],Test Gene CLDN1 log2 FC (CLDN1) [log2 FC],Average log2 FC [1] [log2 FC]
O=C(Nc1cccnc1)c1ccc(O)cc1,1.295,0.483,0.457,0.352,0.658,0.421,0.063,0.491,0.376,0.511
Nc1ccccc1C(=O)Nc1cccnc1,1.511,0.369,0.669,0.735,0.741,0.608,0.397,1.039,0.454,0.725
